From patent US20110244506A1, “EGFR DEPENDENT MODULATION OF CHEMOKINE EXPRESSION AND INFLUENCE ON THERAPY AND DIAGNOSIS OF TUMORS AND SIDE EFFECTS THEREOF” (Merck Patent GmbH, priority 2005, published 2011)

Tested on: EGFR-dependent signaling cascades, tumor cell lines such as A431
Test: EGFR-dependent signaling cascades in tumor cell lines
Format: cell-based
Conditions: various tumor cell lines such as A431

Question: With `COc1cc2ncnc(Nc3ccc(F)c(Cl)c3)c2cc1OCCCN1CCOCC1` [Iressa, gefitinib, reference compound] as the compound, how does the EGFR-dependent signaling cascades read?
Answer: interferes with EGFR-dependent signaling cascades
